Assay results published in article PMC6642186, “Molecular mechanism of setron-mediated inhibition of full-length 5-HT3A receptor” (Nature Communications, 2019).
Entries after “also recorded” stand apart in the source; their conditions may differ.

The chains behind the UniProt entries cited, without tags or fusion partners. Residues count along the entry.
UniProt P23979, 24-483 isoform P23979-2 limits assumed: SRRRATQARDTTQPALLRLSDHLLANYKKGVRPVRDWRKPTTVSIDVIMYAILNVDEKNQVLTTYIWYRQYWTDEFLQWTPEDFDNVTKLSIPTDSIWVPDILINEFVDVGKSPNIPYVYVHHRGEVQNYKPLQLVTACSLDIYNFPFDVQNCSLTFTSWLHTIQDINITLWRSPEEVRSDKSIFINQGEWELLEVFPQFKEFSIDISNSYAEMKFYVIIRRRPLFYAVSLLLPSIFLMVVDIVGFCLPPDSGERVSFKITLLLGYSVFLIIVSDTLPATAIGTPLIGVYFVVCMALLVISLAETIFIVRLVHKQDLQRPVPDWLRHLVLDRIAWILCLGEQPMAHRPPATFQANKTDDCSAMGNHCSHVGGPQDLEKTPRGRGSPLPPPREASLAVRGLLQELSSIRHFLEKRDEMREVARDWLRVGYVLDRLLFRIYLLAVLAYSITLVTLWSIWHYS

Target: T1, wild-type (WT) 5-HT3AR (Mus musculus, UniProt P23979)
T1 construct: Full-length 5-HT3AR messenger RNA (mRNA) was injected into oocytes; expressed in transfected cells; host or cells: Xenopus laevis oocytes (mRNA injection, pTLN vector)
Assay: Granisetron inhibition of serotonin-activated currents, TEVC in oocytes
Assay type: cell-based
Description: Data are shown as mean ± s.d. (n is indicated within parentheses). Significance at p = 0.001 (***) and […] calculated by two-sample t test for WT and mutants. Source data are provided as a Source Data file
The gene encoding mouse 5-HT3AR (purchased from GenScript) was inserted into a Xenopus laevis expression vector (pTLN) using cloning primers shown in Supplementary Table 1. DNA linearization was carried out with the Mlu1 restriction enzyme overnight at 37 °C. mRNA synthesis was done using the mMessage mMachine Kit (Ambion) as per the manufacturer’s instructions and purification was done with RNAeasy Kit (Qiagen). mRNA for studied mutants was prepared in the same way. Three to ten nanograms of mRNA was injected into X. laevis oocytes (stages V–VI) and experiments were performed 2–5 days after injection. For control experiments to verify that no endogenous currents were present, oocytes were injected with the same volume of water. W.F. Boron kindly provided oocytes used in this study. Female X. laevis were purchased from Nasco. Animal experimental procedures were approved by Institutional Animal Care and Use Committee (IACUC) of Case Western Reserve University. […] Oocytes were clamped at a holding potential of −60 mV. Solutions were changed using a syringe pump perfusion system flowing at a rate of 6 ml/min.

reversibility of inhibition (granisetron washed off and serotonin subsequently applied): fully reversible
effect on peak current (oocytes pre-exposed to 1 nM granisetron, 10 µM serotonin): significantly inhibited
currents evoked by granisetron alone (agonist activity) (up to 100 nM, no serotonin): does not evoke currents
SMILES: CN1C2CCCC1CC(NC(=O)c1nn(C)c3ccccc13)C2 (stereo not shown) [granisetron]
effect on currents induced by 10 µM serotonin (100 nM granisetron): completely eliminates currents; also recorded: completely eliminates activation
